# From ChEMBL document CHEMBL1131716, “Heterocycle-peptide hybrid compounds. Aminotriazole-containing agonists of the thrombin receptor (PAR-1)” (Bioorg Med Chem Lett, 1999)
# Biological target: T1, Proteinase-activated receptor 1 (Homo sapiens, UniProt P25116)
# T1 sequence (P25116 whole entry): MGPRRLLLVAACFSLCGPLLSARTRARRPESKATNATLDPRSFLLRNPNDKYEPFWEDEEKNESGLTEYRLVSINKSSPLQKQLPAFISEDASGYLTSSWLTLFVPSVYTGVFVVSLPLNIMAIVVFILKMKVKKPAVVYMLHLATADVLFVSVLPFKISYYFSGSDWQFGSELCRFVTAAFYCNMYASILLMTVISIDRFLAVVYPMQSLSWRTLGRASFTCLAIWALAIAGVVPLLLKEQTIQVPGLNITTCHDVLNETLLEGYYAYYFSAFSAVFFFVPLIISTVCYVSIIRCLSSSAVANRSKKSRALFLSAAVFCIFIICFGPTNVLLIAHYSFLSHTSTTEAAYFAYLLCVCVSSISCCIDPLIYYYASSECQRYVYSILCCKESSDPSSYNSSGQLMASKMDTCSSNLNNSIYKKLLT
# Assay: Inhibition of [3H]S-(p-F-Phe)-Har-L-Har-KY-NH2 binding to thrombin receptor (PAR-1) on membranes from CHRF cells
# Format: cell membranes
row,SMILES,IC50 [µM]
1,N=C(N)NCCC[C@H](NC(=O)[C@H](CC1CCCCC1)NC(=O)c1cncc(Br)c1)C(=O)N[C@@H](Cc1ccccc1)C(N)=O,1.7
2,N=C(N)NCCC[C@H](NC(=O)[C@H](CC1CCCCC1)NC(=O)c1n[nH]c(N)n1)C(=O)N[C@@H](Cc1ccc(O)cc1)C(N)=O,6
3,C/C(=C\c1ccccc1)C(=O)Nc1n[nH]c(C(=O)N[C@@H](CC2CCCCC2)C(=O)N[C@@H](CCCN=C(N)N)C(=O)N[C@@H](Cc2ccccc2)C(N)=O)n1,4.2

# Second part, the compound after the results:
row,IC50 [µM],SMILES
1,3.1,N=C(N)NCCC[C@H](NC(=O)[C@H](CC1CCCCC1)NC(=O)c1n[nH]c(NC(=O)/C(=C/c2ccccc2)c2ccccc2)n1)C(=O)N[C@@H](Cc1ccccc1)C(N)=O
2,2.2,N=C(N)NCCC[C@H](NC(=O)[C@H](CC1CCCCC1)NC(=O)c1n[nH]c(NC(=O)/C(F)=C/c2ccccc2)n1)C(=O)N[C@@H](Cc1ccccc1)C(N)=O

# Biological target: T1, Proteinase-activated receptor 1
# Assay: Inhibition of [3H]S-(p-F-Phe)-Har-L-Har-KY-NH2 binding to Thrombin receptor 1 (PAR-1) on membranes from CHRF cells
# Format: cell membranes
row,SMILES,IC50 [µM]
1,N#Cc1ccc(/C=C/C(=O)Nc2nc(C(=O)N[C@@H](CC3CCCCC3)C(=O)N[C@@H](CCCNC(=N)N)C(=O)N[C@@H](Cc3ccccc3)C(N)=O)n[nH]2)cc1,31
